These results are taken from ChEMBL document CHEMBL1154600, “Knowledge-based characterization of similarity relationships in the human protein-tyrosine phosphatase family for rational inhibitor design” (J Med Chem, 2009).

Chains of the proteins cited; added tags and fusions are not shown. Lines headed by an entry give the natural chain unless they say otherwise; changes in a name come on top.
UniProt P23467: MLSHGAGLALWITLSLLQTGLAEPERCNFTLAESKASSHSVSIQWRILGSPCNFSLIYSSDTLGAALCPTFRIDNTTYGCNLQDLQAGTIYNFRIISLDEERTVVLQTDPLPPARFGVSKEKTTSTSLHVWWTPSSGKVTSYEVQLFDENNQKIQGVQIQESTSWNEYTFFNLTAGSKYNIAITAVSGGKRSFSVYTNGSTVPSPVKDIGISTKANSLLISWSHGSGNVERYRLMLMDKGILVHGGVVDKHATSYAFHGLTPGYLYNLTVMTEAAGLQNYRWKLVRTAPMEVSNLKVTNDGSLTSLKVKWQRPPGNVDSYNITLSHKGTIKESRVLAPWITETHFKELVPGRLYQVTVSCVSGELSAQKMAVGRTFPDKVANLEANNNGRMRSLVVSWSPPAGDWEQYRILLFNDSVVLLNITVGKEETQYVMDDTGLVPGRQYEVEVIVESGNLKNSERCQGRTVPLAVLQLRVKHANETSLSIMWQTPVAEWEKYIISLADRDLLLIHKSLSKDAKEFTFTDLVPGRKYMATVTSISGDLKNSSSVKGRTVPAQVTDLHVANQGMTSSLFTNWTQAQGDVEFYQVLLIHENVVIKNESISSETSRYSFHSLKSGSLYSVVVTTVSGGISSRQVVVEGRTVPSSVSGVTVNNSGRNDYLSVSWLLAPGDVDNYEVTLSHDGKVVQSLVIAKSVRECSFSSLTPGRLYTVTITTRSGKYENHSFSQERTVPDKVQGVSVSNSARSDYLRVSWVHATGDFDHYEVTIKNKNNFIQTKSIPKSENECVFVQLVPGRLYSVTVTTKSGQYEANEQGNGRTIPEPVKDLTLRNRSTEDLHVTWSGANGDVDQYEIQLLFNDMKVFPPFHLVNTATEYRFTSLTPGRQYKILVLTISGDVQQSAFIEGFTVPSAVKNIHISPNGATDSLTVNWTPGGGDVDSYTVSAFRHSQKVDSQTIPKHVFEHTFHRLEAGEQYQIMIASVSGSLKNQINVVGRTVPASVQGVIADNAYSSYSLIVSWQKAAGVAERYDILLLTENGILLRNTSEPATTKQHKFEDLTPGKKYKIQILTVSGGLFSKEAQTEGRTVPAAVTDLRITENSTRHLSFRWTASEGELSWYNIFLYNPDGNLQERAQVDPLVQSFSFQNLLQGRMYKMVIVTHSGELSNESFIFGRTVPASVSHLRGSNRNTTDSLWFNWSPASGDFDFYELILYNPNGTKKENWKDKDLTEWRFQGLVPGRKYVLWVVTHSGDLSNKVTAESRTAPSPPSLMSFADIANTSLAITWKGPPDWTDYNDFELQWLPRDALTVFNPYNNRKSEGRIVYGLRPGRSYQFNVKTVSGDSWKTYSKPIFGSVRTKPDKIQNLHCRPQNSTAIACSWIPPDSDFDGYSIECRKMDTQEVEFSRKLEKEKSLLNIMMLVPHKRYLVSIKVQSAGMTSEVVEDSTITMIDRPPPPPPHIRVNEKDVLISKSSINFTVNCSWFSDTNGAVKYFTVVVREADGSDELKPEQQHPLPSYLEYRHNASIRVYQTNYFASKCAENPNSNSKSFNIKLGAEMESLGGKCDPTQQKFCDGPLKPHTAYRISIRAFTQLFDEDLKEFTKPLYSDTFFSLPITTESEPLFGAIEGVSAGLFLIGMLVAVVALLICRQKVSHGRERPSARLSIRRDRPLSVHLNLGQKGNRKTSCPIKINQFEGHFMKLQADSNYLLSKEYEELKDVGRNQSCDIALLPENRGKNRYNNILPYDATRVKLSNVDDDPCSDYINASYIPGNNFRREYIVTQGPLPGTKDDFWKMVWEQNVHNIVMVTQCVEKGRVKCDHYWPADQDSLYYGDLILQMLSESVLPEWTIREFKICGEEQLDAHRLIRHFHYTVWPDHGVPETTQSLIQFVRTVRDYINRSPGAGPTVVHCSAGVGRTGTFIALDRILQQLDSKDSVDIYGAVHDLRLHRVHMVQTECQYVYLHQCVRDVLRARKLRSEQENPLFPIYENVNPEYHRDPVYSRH

Experiment [1] addresses Receptor-type tyrosine-protein phosphatase beta (Homo sapiens, UniProt P23467). The experiment is described as follows: Inhibition of PTPRB.
Experiment [2] has as its target T1, Receptor-type tyrosine-protein phosphatase C (Homo sapiens, UniProt P08575).
T1 sequence (P08575 whole entry): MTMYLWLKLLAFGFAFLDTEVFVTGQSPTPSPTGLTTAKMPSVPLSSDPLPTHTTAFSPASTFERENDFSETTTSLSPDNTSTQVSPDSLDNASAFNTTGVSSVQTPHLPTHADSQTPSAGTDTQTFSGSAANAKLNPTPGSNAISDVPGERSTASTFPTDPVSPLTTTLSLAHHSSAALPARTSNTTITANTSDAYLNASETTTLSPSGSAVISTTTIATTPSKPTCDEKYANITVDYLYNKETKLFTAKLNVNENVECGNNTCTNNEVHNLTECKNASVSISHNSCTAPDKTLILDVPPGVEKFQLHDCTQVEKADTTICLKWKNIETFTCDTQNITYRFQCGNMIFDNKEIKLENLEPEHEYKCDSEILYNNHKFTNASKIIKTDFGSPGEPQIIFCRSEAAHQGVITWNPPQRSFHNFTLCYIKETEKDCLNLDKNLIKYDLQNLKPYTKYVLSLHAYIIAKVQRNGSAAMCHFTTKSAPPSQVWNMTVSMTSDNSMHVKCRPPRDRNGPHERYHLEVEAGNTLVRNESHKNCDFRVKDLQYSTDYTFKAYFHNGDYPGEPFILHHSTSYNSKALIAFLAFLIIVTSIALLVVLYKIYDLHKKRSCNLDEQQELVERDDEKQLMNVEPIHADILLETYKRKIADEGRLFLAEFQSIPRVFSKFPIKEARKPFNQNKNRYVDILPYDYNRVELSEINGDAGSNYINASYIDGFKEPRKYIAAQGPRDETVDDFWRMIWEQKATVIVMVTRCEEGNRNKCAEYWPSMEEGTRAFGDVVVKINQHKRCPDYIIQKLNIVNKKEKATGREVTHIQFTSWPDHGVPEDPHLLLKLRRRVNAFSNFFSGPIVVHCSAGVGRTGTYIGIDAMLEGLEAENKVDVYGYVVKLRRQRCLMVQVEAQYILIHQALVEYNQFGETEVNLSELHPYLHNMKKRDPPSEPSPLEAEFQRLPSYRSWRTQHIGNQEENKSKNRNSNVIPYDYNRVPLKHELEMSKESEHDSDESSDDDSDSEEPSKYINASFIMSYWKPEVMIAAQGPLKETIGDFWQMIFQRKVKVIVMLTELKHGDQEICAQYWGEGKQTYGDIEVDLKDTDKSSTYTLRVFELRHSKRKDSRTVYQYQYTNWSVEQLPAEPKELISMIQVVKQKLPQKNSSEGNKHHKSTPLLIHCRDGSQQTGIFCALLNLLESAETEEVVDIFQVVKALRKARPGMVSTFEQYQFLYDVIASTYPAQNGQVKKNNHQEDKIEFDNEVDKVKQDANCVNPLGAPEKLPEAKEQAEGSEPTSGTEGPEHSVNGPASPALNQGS
The experiment is described as follows: Inhibition of PTPRC.

The Ki is a measure of affinity in units of concentration, obtained from inhibition or displacement. The low end stands for tighter binding, the high end for weaker binding. On to `O=C(O)C(=O)Nc1sc2c(c1C(=O)O)CCOC2`, for which the figures for the Ki in experiment [1] and in experiment [2] were 11 µM and 53 µM, respectively.
